Earlier results as cited in US11981711B2, “Methods of treating spinal cord injury using a chondroitin sulfate proteoglycan (CSPG) reduction peptide (CRP) comprising a cell membrane penetrating domain, a CSPG binding domain, and a lysosome targeting domain” (The Cleveland Clinic Foundation, priority 2017, dated 2024).

Conditions: background statement; cited from earlier work

For chondroitinase ABC, the thermal stability is listed as “low thermal stability”.
